Among the data in the Kinase Knowledgebase extract (Sharma et al. 2016) are IC50 values, retold here.

By UniProt entry, the sequences of proteins in these tests, tags left out.
UniProt P00533, whole entry, looked up: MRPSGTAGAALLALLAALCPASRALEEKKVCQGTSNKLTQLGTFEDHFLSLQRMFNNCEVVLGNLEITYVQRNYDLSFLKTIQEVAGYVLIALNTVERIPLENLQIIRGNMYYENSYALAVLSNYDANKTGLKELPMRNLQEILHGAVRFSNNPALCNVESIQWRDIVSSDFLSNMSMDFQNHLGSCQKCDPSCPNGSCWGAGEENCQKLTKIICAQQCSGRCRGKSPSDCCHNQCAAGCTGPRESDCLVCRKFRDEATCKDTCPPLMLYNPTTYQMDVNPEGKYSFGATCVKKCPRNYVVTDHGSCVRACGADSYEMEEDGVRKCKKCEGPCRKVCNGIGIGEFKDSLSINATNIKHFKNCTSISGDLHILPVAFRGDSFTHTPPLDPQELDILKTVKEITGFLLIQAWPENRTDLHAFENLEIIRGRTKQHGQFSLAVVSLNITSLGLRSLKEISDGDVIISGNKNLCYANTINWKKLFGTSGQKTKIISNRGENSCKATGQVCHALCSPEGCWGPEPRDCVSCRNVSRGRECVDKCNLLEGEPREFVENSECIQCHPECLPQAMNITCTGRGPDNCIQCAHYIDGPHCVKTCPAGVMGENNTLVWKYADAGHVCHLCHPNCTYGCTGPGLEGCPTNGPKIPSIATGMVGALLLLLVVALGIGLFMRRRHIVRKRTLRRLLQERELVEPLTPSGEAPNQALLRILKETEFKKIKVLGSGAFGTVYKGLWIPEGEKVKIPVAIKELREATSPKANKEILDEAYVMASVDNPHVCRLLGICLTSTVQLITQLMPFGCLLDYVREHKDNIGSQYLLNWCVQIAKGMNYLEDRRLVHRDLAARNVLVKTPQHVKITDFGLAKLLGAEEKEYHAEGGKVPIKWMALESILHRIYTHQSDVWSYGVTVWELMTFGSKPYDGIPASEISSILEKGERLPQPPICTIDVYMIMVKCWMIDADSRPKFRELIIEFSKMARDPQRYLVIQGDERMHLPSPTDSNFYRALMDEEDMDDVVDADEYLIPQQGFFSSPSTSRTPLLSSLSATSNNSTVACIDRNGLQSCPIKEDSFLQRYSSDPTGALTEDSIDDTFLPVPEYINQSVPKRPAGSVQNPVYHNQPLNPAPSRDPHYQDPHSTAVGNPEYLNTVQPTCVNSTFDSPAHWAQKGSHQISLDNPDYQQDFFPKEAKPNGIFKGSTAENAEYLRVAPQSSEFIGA

In this experiment the target is EGFR (UniProt P00533).

The IC50 is the concentration that inhibits the measured activity by half. Higher therefore signals weaker potency in that assay.

In the case of `COc1cc2ncnc(Nc3cccc(Cl)c3)c2cc1OC`, the IC50 amounted to 0.31 nM.
